Results on three compounds are retold here after PubChem BioAssay AID2637 (Johns Hopkins Ion Channel Center, 2010).

The chains behind the UniProt entries cited, without tags or fusion partners.
UniProt Q9QUQ5, whole entry: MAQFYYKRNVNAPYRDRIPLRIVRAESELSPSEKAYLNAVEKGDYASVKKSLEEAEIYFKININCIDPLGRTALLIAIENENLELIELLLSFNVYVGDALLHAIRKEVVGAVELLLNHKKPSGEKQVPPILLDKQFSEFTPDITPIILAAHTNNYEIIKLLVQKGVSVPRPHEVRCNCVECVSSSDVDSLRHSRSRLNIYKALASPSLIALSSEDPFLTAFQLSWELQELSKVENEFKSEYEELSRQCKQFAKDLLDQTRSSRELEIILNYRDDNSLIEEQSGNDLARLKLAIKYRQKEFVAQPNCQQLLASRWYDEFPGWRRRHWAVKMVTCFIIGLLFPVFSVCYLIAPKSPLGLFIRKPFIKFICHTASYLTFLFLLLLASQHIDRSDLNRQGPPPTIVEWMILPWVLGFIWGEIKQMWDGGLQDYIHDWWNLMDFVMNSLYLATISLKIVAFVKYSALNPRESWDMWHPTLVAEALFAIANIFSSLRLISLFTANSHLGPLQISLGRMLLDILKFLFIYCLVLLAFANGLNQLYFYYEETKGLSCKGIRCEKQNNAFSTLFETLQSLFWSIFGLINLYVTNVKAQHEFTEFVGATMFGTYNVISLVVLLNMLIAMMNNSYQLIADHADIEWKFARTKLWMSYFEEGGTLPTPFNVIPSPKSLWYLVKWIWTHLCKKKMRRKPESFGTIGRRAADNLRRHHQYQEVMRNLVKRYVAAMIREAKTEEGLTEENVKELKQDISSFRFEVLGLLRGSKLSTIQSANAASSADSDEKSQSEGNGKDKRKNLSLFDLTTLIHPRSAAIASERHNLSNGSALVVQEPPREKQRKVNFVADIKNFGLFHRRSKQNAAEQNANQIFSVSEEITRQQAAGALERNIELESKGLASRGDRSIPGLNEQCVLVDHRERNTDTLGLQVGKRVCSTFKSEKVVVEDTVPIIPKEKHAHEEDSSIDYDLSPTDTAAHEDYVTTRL

The list shows a part of the results, in another mix than the full data. The source made the active and inactive calls.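 How the source made its calls: active means calcium signal ratio cut to more than 3 SD under the fully stimulated control mean yet still positive, in both repeats and the primary screen; inactive means the rest.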

Usually inhibition stands for the change of the read-out against control, counted positive when it falls.

This test has as its target Short transient receptor potential channel 4 (Mus musculus) (UniProt Q9QUQ5). As to the kind of experiment: inhibitors of mouse TRPC4 channel, confirmation, cell-based, second round, Fluo4, HEK293 TRPC4beta/mu-opioid, 1 µM (AID 2637).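 On inhibition: percent of integrated ratio relative to wells lacking test compound.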 As to conditions: Fluo4 calcium flux, DAMGO, at 1 µM; stronger effect = higher value. (In general: A change in cytosolic calcium serves as a functional read-out for many receptors and channels.)
Take `CN(C)CCOC(=O)C(O)(c1ccccc1)C1CCCC1` (stereo not drawn): the inhibition was active: 62%.

Turning to `CN(C)C1(CNC(=O)c2ccc(Cl)c(S(N)(=O)=O)c2)CCCCC1`, the inhibition result is “inactive”.

On to `CCN(CC)CCCOC(=O)C(O)(c1ccccc1)c1ccccc1`, for which the inhibition result is “inactive”.
